The results in this text go back to patent US20250306034A1, “Detection of Liver Disease” (Owlstone Medical Limited, priority 2022, published 2025).

Chains of the proteins cited; added tags and fusions are not shown.
UniProt O60218, whole entry: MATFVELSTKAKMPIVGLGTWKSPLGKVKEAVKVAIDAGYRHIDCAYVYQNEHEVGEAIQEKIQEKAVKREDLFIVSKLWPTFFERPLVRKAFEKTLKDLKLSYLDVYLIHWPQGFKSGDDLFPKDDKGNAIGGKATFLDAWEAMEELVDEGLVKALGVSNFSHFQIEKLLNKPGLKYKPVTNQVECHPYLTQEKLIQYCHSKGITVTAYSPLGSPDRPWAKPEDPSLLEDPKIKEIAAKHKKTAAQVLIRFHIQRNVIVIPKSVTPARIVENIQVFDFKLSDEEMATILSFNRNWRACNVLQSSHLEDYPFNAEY

Each structure is given as a SMILES string.

In the series the target is AKR1B10 (Homo sapiens, UniProt O60218). The settings on record: cancer cell line overexpressing AKR1B10.

In the case of `CC(C)=CCCC(C)=CC=O` [citral], the “bioproduct generation after ablation of AKR1B10 or treatment of the cells with AKRs inhibitors” value was “reduced or absent bioproduct generation”.
